Assay [1] has as its system MDA-MB-231 breast cancer cell line. Particulars: O'Brien et al.; cited from earlier work.
Assay [2] concerns BT-474 breast cancer cell line. The experiment in a line: aLCI mass response profiling. The format is cell-based, human. Particulars: 20 ug/ml trastuzumab. As to the method: (§1) Mass response profiling of four human breast cancer cell lines was performed in real-time using aLCI with co-incubation of 20 ug/ml clinical grade trastuzumab. For each cell type, a control well containing only culture media and a treated well containing trastuzumab were measured simultaneously. […] Importantly, these cell lines grow with very different morphologies. MDA-MB-231 and SK-BR-3 lines grow as single cells or in loose disaggregated clusters, whereas MCF-7 and BT-474 lines grow as dense multi-cellular colonies (FIG. 13). The relative scale between a single MCF-7 cell (mass˜5×10^2 pg) and a large colony (˜22×10^3 pg) covers a 44-fold difference in mass (FIG. 14).
(§2) BT-474, SK-BR-3, MDA-MB-231, and MCF-7 breast cancer cell lines were obtained from American Type Culture Collection (Rockville, Md.). All lines were maintained in RPMI 1640 (Cellgro; Manassas, Va.) growth media supplemented with 10% fetal bovine serum (Omega; Tarzana, Calif.) and 1% penicillin, streptomycin, and L-glutamine.
(§3) Clinical grade trastuzumab (Herceptin) (Genentech; South San Francisco, Calif.) was used at 20 ug/ml.
(§4) 5×10^4 cells were seeded into 12-well plates and allowed to adhere and grow for 2 days before beginning treatment. On days 0, 3, 5, and 7 of treatment with 20 ug/ml Herceptin, cells were trypsinized and counted. To calculate the fold change, the doubling time was determined (DT=t*(log(2)/log(Nt/N0))) for control and drug treated samples and the fold change taken as DTdrug/DTctrl. DT=doubling time, t=time, Nt=number or mass of cells at time t, N0=number or mass of cells at time t=0.
(§5) The live cell interferometer has been described previously (see, e.g. J. Reed, et al. Biophys J. 2011, 101, 1025-31; J. Reed, et al. ACS Nano. 2008, 2, 841-6; J. Reed, et al. Nanotechnology. 2008, 19). The system consists of a modified Bruker NT9300 optical profiler (Bruker; Tucson, Ariz.) with a 20×0.28NA Michelson interference objective. The Michelson interferometer contains a beam splitter, reference mirror, and compensating fluid cell to account for the optical path differences induced by the fluid surrounding the sample. The phase shifting (PSI) method was used to capture phase images of the cell samples. To enable multi-sample imaging, aLCI employs a small motor to adjust the interferometer reference mirror for small differences in cover glass optical path length at each sample well.
(§6) Image analysis was performed using a custom, multi-step program written in Matlab (Mathworks Inc., Natick, Mass.). The first step was a phase-unwrapping step to remove phase-errors (integer wavelength errors due to the ambiguity inherent in quantitative phase imaging) which remained after processing by the Goldstein phase unwrapping algorithm employed by Bruker Vision software (Bruker Nano Inc., Tucson, Ariz.). This algorithm uses multiple random walks away from each pixel to remove integer wavelength jumps and non-physical excursions below background level. The second step is to segment each image into cell or colony objects using a combination of a local adaptive median filter and a watershed transform. Finally, objects identified by image segmentation were tracked using the particle tracking code adapted for Matlab by Daniel Blair and Eric Dufresne, based on an IDL particle tracking code (see, e.g. J C. Crocker, et al. Journal of Colloid and Interface Science. 1996, 179, 298-310).

Assay [3] has as its system MCF-7 breast cancer cell line. Description: aLCI mass response profiling. In kind it is cell-based, human. Particulars: 20 ug/ml trastuzumab, over 7 h. The procedure:
as §1, §2, §3, §4, §5, §6

Assay [4] deals with SK-BR-3 breast cancer cell line. Description: aLCI mass response profiling. Particulars: 20 ug/ml trastuzumab. In kind it is cell-based, human. As to the method:
as §1, §2, §3, §4, §5, §6

Assay [5] deals with MDA-MB-231 breast cancer cell line. The experiment in a line: aLCI mass response profiling. The format is cell-based, human. Particulars: 20 ug/ml trastuzumab, over 7 h. As to the method:
as §1, §2, §3, §4, §5, §6

Assay [6] relates to SK-BR-3 breast cancer cell line. Particulars: 5-7 day proliferation assays; O'Brien et al.; cited from earlier work.
The test system of assay [7] is MCF-7 breast cancer cell line. Particulars: O'Brien et al.; cited from earlier work.
Assay [8] has as its system BT-474 breast cancer cell line. Particulars: 5-7 day proliferation assays; O'Brien et al.; cited from earlier work.

In the case of trastuzumab, the “trastuzumab sensitivity in vitro” value in assay [1] is recorded as “resistant”; in assay [6], “differentially sensitive”; in assay [7], “resistant”; in assay [8] it was “differentially sensitive”. For the same substance, the “time at which growth rates of treated and control samples begin to diverge” value in assay [2] and in assay [4] was ~4 h throughout. In addition, the “control-to-treated mass fold change (mean+/-standard error)” value in assay [2] (after 6 h) was 1.70+/−0.39; in assay [4] (after 6 h) it was 1.24+/−0.10. Besides, the “difference in growth rates treated vs control” value in assay [3] and in assay [5] was “no significant difference” each time. In addition, the “increase in mass over time, treated versus control samples” value in assay [3] and in assay [5] was “identical increase in mass over time” in each case.

Source of the values: patent US10203331B2, “Single cell drug response measurements via live cell interferometry” (The Regents of the University of California, priority 2011, dated 2019).
